Reference: paper PMC10575921 (2023)

Legend:
in vivo [1] = settings: male, C57BL/6J, mouse, po
in vivo [2] = settings: both, cynomolgus monkey, po
in vivo [3] = settings: both, Sprague-Dawley, rat, po

`CC(C)(C)[C@H](NC(=O)C(F)(F)F)C(=O)N1CC2(C[C@H]1C(=O)N[C@H](C#N)C[C@@H]1CCNC1=O)SCCS2` [compound 9, simnotrelvir] gave a Tmax (in vivo [1]) of 30 min, a Tmax (in vivo [2]) of 60 min and a Tmax (in vivo [2]; 5 mg/kg) of 30 min. For the same molecule, the Tmax (in vivo [3]) was 30 min and the Tmax (in vivo [3]; 15 mg/kg) was 15 min.
